In ChEMBL document CHEMBL1152272, “Inhibitor scaffolds for 2-oxoglutarate-dependent histone lysine demethylases” (J Med Chem, 2008) one finds IC50 data, which are given here for one compound.

As usually defined, the IC50 is the midpoint of a concentration-inhibition curve.

A short description of experiment [1]: Inhibition of 2-oxoglutarate-dependent human JMJD2E in presence of excess 2-oxoglutarate and 10 uM Fe2 by FDH coupled assay.
A short description of experiment [2]: Inhibition of 2-oxoglutarate-dependent human JMJD2E preincubated for 30 mins by FDH coupled assay.

On to `O=C(O)CNC(=O)C(=O)O` [N-OXALYLGLYCINE], for which the IC50 in experiment [1] is 830 µM; in experiment [2] it was 24 µM.
